Experimental data: patent US20230390363A1, “Compounds, Compositions and Methods of Use to Treat Spinal Fusions” (PURDUE RESEARCH FOUNDATION, priority 2020, published 2023)

Test system: posterolateral spinal fusion of L4-L5
Test: Posterolateral spinal fusion of L4-L5 in rats: micro-CT and manual palpitation after treatment
Format: in vivo, rat
Description: FIG. 6, panels A-C show three-dimensional reconstructions of micro-CT scans of a posterolateral spinal fusion of L4-L5 in a rat treated with a plain collagen matrix and a compound of SEQ ID NO: 2 for eight weeks. In some embodiments, SEQ ID NO: 2 was dosed (e.g., in rodents) at 33 nmol/kg twice a week. […] FIG. 7, panels A-C show the three-dimensional reconstructions of micro-CT scans of a posterolateral spinal fusion of L4-L5 in a rat treated with a plain collagen matrix soaked with rhBMP-2 (10 μg) for eight weeks. In some embodiments, the collagen matrix was applied during surgery. […] In some embodiments, phosphate-buffered saline was dosed at a 1× concentration twice a week in the same volume as SEQ ID NO: 2. In some embodiments, manual palpitation confirmed no fusion in the phosphate-buffered saline-treated rats. […] Scores were assigned 0-5 on osteointegration, density, and bridging of both bilateral spinal fusions in microCT scans of the rats as determined by an individual who was blinded to the treatment and reviewed random samples. The total score is the sum of all five scores combined. […] The density of the scan was assigned based on a standard curve generated by a phantom hydroxyapatite standard set. A bilateral posterolateral lumbar spinal fusion was performed under aseptic conditions using isoflurane as an anesthetic. The skin surrounding the L2-L6 region on the back was shaved and disinfected using a Betadine solution followed by an alcohol pad. A 3-cm incision extending from the L3 to L6 vertebrae was made in the skin in this prepared area. The muscle on the vertebral body between the spinous process and the transverses process was bluntly dissected away from the vertebral body to expose the transverses processes. Using a low-speed burr, the L4 and L5 transverse processes cortical bone was removed in addition to the facia joint between the two vertebrae. The burr removed the surface layer of the bone. This process is known as decortication and was done to allow for direct regeneration of bone tissue. Following decortication, a drug-soaked collagen sponge was placed on each side of the vertebrae. A 5×7.5-mm collagen sponge was soaked to saturation in the drugs for 10 minutes. The collagen sponge (RCM6 membranes from ACE surgical supplies) served as a scaffold to aid in the fusion of the vertebrae. Mineralized collagen scaffolds (supplied by Houston Methodist, Houston, TX) and collagen scaffolds wrapped around anorganic bone granules (InterOss bone granules; SigmaGraft Inc. Biomaterials, Fullerton, CA) were also separately used. The inter-muscle was closed with resorbable sutures. The exterior wound was then sutured closed using a nylon suture. Subcutaneous buprenorphine (0.05-0.1 mg/kg) was then administered directly after the operation and was repeated every 12 hours for the next 3 days post-surgery. Fracture healing was assessed using micro-CT (Scanco Medical Ag or PerkinElmer). The anesthetized animal was scanned for two minutes with the PerkinElmer Quantum FX micro-CT at high resolution with a voxel size of 10 μM at 90 kV and 88 uA and an Al 0.5 mm+Cu 0.06 mm filter. The scanning detector rate was 117 fps. The images were analyzed in ImageJ using the BoneJ package. Morphometric parameters were quantified in an ROI that included just the fracture callus. Trabecular thickness (Tb.Th.), trabecular spacing (Tb. Sp.), total volume (TV), and volume of calcified callus (BV) were calculated. Statistical analysis was performed using a one-way analysis of variance (ANOVA) and a Dunnett's post-hoc analysis with significance reported at the P value of 0.05. All animal experiments were performed in accordance with protocols approved by Purdue University's Institutional Animal Care and Use Committee (IACUC). Rats were scanned in AMI after being anesthetized with isoflurane. […]

rhBMP-2: bone morphogenetic protein-2; clinically approved drug, current standard of care, positive control (10 μg)
change of bone graft granules on micro-CT (bone graft matrix, eight weeks): caused some of the granules to fuse | spinal fusion (manual palpitation) (bone graft matrix, eight weeks, SEQ ID NO: 2 33 nmol/kg twice a week, rhBMP-2 10 μg): no fusion | BMD of the bone bridges formed during the fusion (micro-CT, FIG. 17): did not generate enough mineralized tissue to be quantifiable | spinal fusion (micro-CT) (mineralized collagen scaffold, eight weeks of treatment): none of the treatments had fused | ossification on micro-CT (plain collagen matrix soaked with rhBMP-2 (10 μg), eight weeks): did ossify, but not in as controlled of a manner as those treated with a compound of SEQ ID NO: 2 | spinal fusion (micro-CT, manual palpitation) (plain collagen matrix, eight weeks, SEQ ID NO: 2 33 nmol/kg twice a week, rhBMP-2 10 μg soaked in matrix): no fusion
